# System: Gram-positive and Gram-negative bacterial species
# Assay: Broth microdilution MIC, panel summary
# Type: cell-based
# Conditions: read-out: MIC values
# Procedure: To determine whether DHDPS inhibitors were plant-specific, compounds 1, 3 and 5 were selected and tested against a panel of Gram-positive and Gram-negative bacteria.
# Assays were carried out by a broth microdilution method using a 96-well plate according to guidelines defined by the European Committee on Antimicrobial Susceptibility Testing as described here. Overnight cultures of strains were grown in tryptic soy broth (TSB) at 37° C. The overnight cultures were diluted to a concentration of 1×10^6 bacteria/ml (OD600=0.01) in TSB media. To each well on 96 well plates, 100 μl of bacterially infected media at a concentration of 1×10^6/ml and compounds at various concentrations were added. An uninfected control (i.e. no bacteria) was also included. The plates were incubated at 37° C. wrapped in parafilm for 20 hrs. The growth was assessed by measuring the absorbance at 600 nm. The minimum inhibitory concentration (MIC) was determined to be the lowest concentration of compound that inhibits visible bacterial growth.
smiles,measurement,value
"COc1ccc(/C=C2\SC(=O)N(CC(=O)O)C2=O)cc1 [Compound 5, (Z)-2-(5-(4-Methoxybenzylidene)-2,4-dioxothiazolidin-3-yl)acetic Acid]",MIC,> 64 µg/mL

# Source: patent publication US20200068890A1 (Person to Whom the Inventor is Obligated to Assign, priority 2017, published 2020)
